# Where two headings read alike, the source gives them in different places.
# Test system: human lymphocytes
# Protocol: Gene toxicity was assessed by testing the potential of SET-M33L to induce micronuclei in human lymphocytes. Human lymphocytes in whole blood culture, stimulated to divide by addition of PHA 48 hours prior to treatment, were exposed to SET-M33L for 3 hours with and without exogenous metabolic activation (S9 mix), and for 20 hours without S9 mix.
# Analysis of micronucleated cells was based on the criteria described by Fenech and Morley[37] and Fenech[38]. […] Human lymphocytes from informed donors were pooled and diluted with HML media (RPMI 1640, supplemented with 10% fetal calf serum, 0.2 IU/ml sodium heparin, 20 IU/ml penicillin, 20 μg/ml streptomycin and 2.0 mM L-glutamine). […] Cultures were established from the prepared (pooled) sample and dispensed as 5 ml aliquots (in sterile universal containers) so that each culture contained blood (0.4 ml), HML media (4.5 ml) and PHA solution (0.1 ml). The cultures were then incubated at 37 °C, and the cells were resuspended (twice daily) by gentle inversion. […]
# The cells were harvested by centrifugation at 500 g for 5 minutes. […] The prepared slides were examined by fluorescence microscopy. The incidences of mononucleate, binucleate and polynucleate cells were assessed per culture per 1000 binucleate cells. […]
smiles,measurement,setting,value
"COc1cc2c(c(OC)c1OC)-c1ccc(OC)c(=O)cc1[C@@H](NC(C)=O)CC2 [COL, Colchicine]",Mean of binucleate cells containing micronuclei per 1000 cells,,19.0 per 1000 cells
same,Mean of binucleate cells containing micronuclei per 1000 cells,"3h − S9, 0.06 μg/ml, positive control",20.5 per 1000 cells

# Reference: publication PMC4864329, “In vitro and in vivo efficacy, toxicity, bio-distribution and resistance selection of a novel antibacterial drug candidate” (Scientific Reports, 2016)
